Patent publication US20090203577A1 (EXELIXIS, INC., priority 2005, published 2009)

Amino acid sequences for entries named in this document (tags omitted). Residues count along the entry.
UniProt Q96RI1, 1-472 isoform 2: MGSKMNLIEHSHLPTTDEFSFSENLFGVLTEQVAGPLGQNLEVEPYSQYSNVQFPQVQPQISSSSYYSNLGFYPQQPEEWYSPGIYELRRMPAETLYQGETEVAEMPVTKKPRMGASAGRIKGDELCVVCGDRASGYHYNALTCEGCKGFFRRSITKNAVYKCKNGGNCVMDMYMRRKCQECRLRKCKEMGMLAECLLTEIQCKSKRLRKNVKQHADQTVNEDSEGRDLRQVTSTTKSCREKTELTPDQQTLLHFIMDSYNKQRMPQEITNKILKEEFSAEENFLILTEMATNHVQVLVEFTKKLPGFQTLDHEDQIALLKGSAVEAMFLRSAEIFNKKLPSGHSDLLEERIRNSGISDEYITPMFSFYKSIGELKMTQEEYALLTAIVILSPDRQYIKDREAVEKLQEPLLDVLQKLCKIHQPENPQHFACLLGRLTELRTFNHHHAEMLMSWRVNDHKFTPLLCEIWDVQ
UniProt P19793, whole entry partner: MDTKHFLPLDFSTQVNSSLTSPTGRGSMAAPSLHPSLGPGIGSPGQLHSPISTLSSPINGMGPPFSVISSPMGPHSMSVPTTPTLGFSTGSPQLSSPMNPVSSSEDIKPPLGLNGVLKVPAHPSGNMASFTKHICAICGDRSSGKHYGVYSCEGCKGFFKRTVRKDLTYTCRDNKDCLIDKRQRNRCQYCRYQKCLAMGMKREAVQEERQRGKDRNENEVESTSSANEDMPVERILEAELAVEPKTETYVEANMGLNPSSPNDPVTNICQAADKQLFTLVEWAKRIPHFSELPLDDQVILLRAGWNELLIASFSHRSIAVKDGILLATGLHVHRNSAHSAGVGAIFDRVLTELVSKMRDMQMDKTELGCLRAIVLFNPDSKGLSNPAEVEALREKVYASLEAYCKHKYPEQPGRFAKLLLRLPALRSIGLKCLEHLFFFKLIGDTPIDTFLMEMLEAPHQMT

Legend:
[1] = target: human farnesoid X receptor (Homo sapiens, UniProt Q96RI1); assay: FXR in vitro assays (farnesoid X receptor/ECREx7 co-transfection assay, TR-FRET assay), Table I; type: cell-based; details: for EC50: read-out: EC50 μM, agonist activity, one or more of the in vitro assays; for % Efficacy: relative to maximum response of chenodeoxycholic acid (CDCA)
Kinetic solubility assay = details: 500 μM assay solution in PBS, pH7.4 from DMSO stock, filtration, HPLC-UV

SMILES	EC50 [1] [µM]	% Efficacy [1]	Kinetic Solubility μM (Kinetic solubility assay)
CC(C)OC(=O)C1=CN(C(=O)c2ccc(F)c(F)c2)CC(C)(C)c2c1[nH]c1cc(OC(=O)NCCN3CCCCC3)ccc21	0.01 to 0.1	A (A=>100%)	E (E=>10 μM)
CC(C)OC(=O)C1=CN(C(=O)c2ccc(F)c(F)c2)CC(C)(C)c2c1[nH]c1ccc(O)cc21	0.1 to 1	A (A=>100%)	
